Measurements: patent US20220177841A1, “EX VIVO METHODS FOR PRODUCING A T CELL THERAPEUTIC AND RELATED COMPOSITIONS AND METHODS” (Myst Therapeutics LLC, priority 2019, published 2022)

How the values were obtained:
[1] = test system: SCS obtained from CRC tumor fragments; assay: Expansion of tumor-derived cells by IL-2 concentration, CRC; format: cell-based, human; settings: 300 IU/mL versus 6000 IU/mL, 14 to 21 days
Method: Single cell suspensions (SCSs) obtained by homogenization and enzyme digestion of primary tumors from donor patients with CRC or melanoma, as described in Example 1, were cultured in a conventional 6-well plate or a gas-permeable 24-well culture plate. Where possible, multiple conditions from each donor were initiated and averaged (error bars represent ±standard deviation). For 6-well plates, cells were seeded between 250,000 and 1,000,000 cells/mL and for gas-permeable 24-well plates cells were seeded between 5,000 and 750,000 cells/mL. In both cases, the cells were seeded in either RPMI containing 5% human serum or serum free OpTmizer medium with recombinant IL-2 supplemented at a concentration of IL-2 of 300 IU/mL or 6000 IU/mL. The media also contained gentamicin at 10 μg/ml and a final concentration of 2.0 mM of a L-alanyl-L-glutamine dipeptide form of glutamine (GlutaMAX Supplement; Thermofisher). The cells were incubated for up to 31 days, typically 14 to 21 days, wherein 50% of cellular media was exchanged every other day beginning on the 5th day of culture.
For all conditions, cell counts were performed approximately every other day using the NC-200 Automated Cell Counter (Chemometec) and samples were collected for fluorescence-activated cell sorting (FACS). […]

melanoma tumor fragments = assay: Expansion of tumor-derived cells by IL-2 concentration, melanoma; format: cell-based, human; settings: 300 IU/mL versus 6000 IU/mL, 14 to 21 days
Method: For expansion from tumor fragments, an individual 1-8 mm tumor fragment, obtained as described in Example 1 from primary tumors of donor patients with CRC or melanoma, was placed in a well of a gas-permeable 24-well culture plate or a 6-well plate, and cultured in either RPMI containing 5% human serum or serum free OpTmizer medium with recombinant IL-2 supplemented at a concentration of 300 IU/mL or 6000 IU/mL. The media also contained gentamicin at 10 μg/ml, and a final concentration of 2.0 mM of a L-alanyl-L-glutamine dipeptide form of glutamine (GlutaMAX Supplement; Thermofisher). The cells were incubated for up to 31 days, such as typically 14 to 21 days, wherein 50% of cellular media was exchanged every other day beginning on the 5th day of culture.
For all conditions, cell counts were performed approximately every other day using the NC-200 Automated Cell Counter (Chemometec) and samples were collected for fluorescence-activated cell sorting (FACS). After completion of the expansion phase (e.g. day 14-31), cells were washed in PBS then cryopreserved in the presence of a cryoprotectant. Cryopreservation was carried out using CoolCell devices (Corning) or the VIA Freeze (GE Healthcare).
The effect of different IL-2 concentrations during the expansions from the different tumor types was compared. […]

IL-2: recombinant cytokine that supports T cell recovery and proliferation
expansion of cells (total cell numbers, fold expansion), high versus low concentration of IL-2 [1]: not observed to be necessary for cellular expansion
expansion of cells (total cell numbers, fold expansion), high versus low concentration of IL-2 (melanoma tumor fragments): not observed to be necessary for cellular expansion
